Among the data in patent US9643960B2, “Procaspase activating compounds” (The Board of Trustees of the University of Illinois, priority 2009, dated 2017) are activation values, retold here.

The experiment deals with T1, caspase-3 (Homo sapiens, UniProt P42574).
T1 construct: Active caspase-3 is a homodimer of heterodimers and is produced by proteolysis of procaspase-3; 6xHis (C); made in house; host or cells: Escherichia coli BL21(DE3), plasmid pHC332
T1 sequence (P42574 29-175 limits assumed): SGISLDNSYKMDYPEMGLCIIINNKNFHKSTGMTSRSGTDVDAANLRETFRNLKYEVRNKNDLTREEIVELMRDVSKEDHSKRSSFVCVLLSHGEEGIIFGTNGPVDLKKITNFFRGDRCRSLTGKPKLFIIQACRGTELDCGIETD
T1 sequence (P42574 176-277 limits assumed): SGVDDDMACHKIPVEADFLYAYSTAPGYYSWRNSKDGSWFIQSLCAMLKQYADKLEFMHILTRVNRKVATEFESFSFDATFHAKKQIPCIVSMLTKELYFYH
Description: Caspase-3 activity assay (relief of zinc mediated inhibition). The format is biochemical. The conditions noted are these: read-out: Caspase-3 (% Activation at 10 μM). The procedure:
Caspase-3 Activity Assays—Zinc-free stocks (2×) of caspase-3 (1 μM) were prepared in Caspase Activity Buffer. Compound stock solutions were made (2×) at various concentrations from 200 μM to 200 nM in Caspase Activity Buffer. […] The plates were incubated at room temperature for 30 minutes. […] The data for each compound concentration (4 wells) was averaged and the percent activity was plotted as a function of compound concentration. The data was analyzed using Table Curve 2D and fitted to a logistical dose-response curve. […] The percent activity at 10 μM was determined for each compound and reported as an average of the three replicate experiments with the corresponding SEM.

Molecules are shown by their SMILES.

For the molecule `C=CCc1cccc(/C=N/NC(=O)CN2CCN(Cc3ccccc3)CC2)c1O` [PAC-1], the activation at 10 µM is 45.8 ± 4.8%.
